System: NMT (protein myristoylation) in L. donovani amastigotes
Test: microbe, parasite or virus in culture
Settings: Leishmania donovani, read-out: TC50 (CI95), tagging IC50

Row | SMILES | IC50 [µM]
1 | CN1CCC(N(C)c2nc(N(C)CCC#N)c3sccc3n2)CC1 [Compound 1, 3-(Methyl(2-(methyl(1-methylpiperidin-4-yl)amino)thieno[3,2-d]pyrimidin-4-yl)amino)propanenitrile] | 21.6
2 | CN1CCC(N(C)c2nc(N(C)CCC#N)c3ccccc3n2)C1 (centres unmarked) [Compound 26, 3-(Methyl(2-(methyl(1-methylpyrrolidin-3-yl)amino)quinazolin-4-yl)amino)propanenitrile] | 32.5
